# Only a part is listed here, and it is no random draw. Active and inactive are the calls of the source.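 The calls were made as follows: active = inhibition above the mean of all tested compounds plus 3 SD (cut at about 43% in these data); inactive = the rest.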
# By UniProt entry, the sequences of proteins in these tests, tags left out.
# UniProt P08908, whole entry: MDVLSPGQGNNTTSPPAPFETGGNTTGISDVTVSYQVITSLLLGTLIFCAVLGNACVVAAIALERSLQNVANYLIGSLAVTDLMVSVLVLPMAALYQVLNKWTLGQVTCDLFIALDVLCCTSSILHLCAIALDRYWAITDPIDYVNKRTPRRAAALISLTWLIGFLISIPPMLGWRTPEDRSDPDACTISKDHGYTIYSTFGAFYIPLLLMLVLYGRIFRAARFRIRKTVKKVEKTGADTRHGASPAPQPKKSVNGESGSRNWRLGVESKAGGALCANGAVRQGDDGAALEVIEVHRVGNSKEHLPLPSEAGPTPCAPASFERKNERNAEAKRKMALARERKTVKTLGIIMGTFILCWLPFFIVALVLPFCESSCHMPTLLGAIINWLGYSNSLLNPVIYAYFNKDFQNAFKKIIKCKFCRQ
# Biological target: 5-hydroxytryptamine receptor 1A (Homo sapiens) (UniProt P08908)
# Test: human 5-HT1a receptor antagonists, primary screen, cell-based, CHO, Ga15 NFAT-bla reporter (AID 612);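 also: receptor stimulated by 5-CT agonist at 100 nM near EC80; beta-lactamase reporter measured by ratiometric fluorescence of a cleavable substrate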
# Conditions: CHO 5-HT1a Ga15 NFAT-bla reporter, antagonist mode; at 10 µM; active compounds read high
row,Compound,inhibition
1,N/C(=N\O)c1c(N)no[n+]1[O-],inactive: -16.8%
2,CCC(CO)(C(=O)OC1CN2CCC1CC2)c1ccccc1 (configuration not stated),inactive: -1.9%
3,CCOc1ncccc1C(=O)NCC1(N2CCOCC2)CCCCC1,inactive: 7.7%
4,Fc1ccccc1NC1CCN(Cc2ccccc2)CC1,inactive: 22.5%
5,COc1ccc(NC2CCN(CCc3ccccc3)CC2)c(OC)c1,active: 49.2%
6,O=C(OC1CN2CCC1CC2)C1c2ccccc2Oc2ccccc21 (configuration not stated),inactive: 5.4%
7,N#CC1(Nc2ccccc2)CCN(CCc2ccccc2)CC1,inactive: 9.1%
